Experiment [1] concerns the target T1, BACE1 (Homo sapiens (Human), UniProt P56817). The experiment is described as follows: BACE1 cell assay. The format is cell-based. The note with it: read-out: IC50 IP (μM) BACE1 Cell.
Experiment [2] addresses T1, BACE1. The experiment in a line: In vitro enzymatic BACE1 FRET assay. The format is biochemical. Conditions: read-out: IC50 IP (μM) BACE1 Enzyme.
Another experiment deals with Cathepsin D (CatD) (Homo sapiens (Human), UniProt P07339). The experiment in a line: CatD assay. The class given is biochemical. Conditions: read-out: IC50 IP (μM) CatD.
The next experiment concerns the target BACE2 (Homo sapiens (Human), UniProt Q9Y5Z0). The experiment in a line: In vitro enzymatic BACE2 FRET assay. The class given is biochemical. Conditions: read-out: IC50 IP (μM) BACE2 Enzyme.

By UniProt entry, the sequences of proteins in these tests, tags left out. Residues count along the entry.
UniProt P56817, 46-501, species assumed: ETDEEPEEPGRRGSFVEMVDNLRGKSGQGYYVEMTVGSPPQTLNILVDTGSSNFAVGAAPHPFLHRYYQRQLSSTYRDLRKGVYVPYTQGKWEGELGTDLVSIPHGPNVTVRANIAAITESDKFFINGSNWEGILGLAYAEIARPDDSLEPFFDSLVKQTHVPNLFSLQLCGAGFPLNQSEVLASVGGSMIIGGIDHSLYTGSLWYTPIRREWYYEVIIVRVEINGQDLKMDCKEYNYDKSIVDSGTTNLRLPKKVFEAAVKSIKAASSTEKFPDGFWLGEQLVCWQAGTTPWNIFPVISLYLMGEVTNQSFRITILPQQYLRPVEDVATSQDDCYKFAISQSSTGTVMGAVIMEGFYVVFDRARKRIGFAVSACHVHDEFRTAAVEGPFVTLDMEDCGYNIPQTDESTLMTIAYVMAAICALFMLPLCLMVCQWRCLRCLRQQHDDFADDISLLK
UniProt P07339, 65-412, species assumed: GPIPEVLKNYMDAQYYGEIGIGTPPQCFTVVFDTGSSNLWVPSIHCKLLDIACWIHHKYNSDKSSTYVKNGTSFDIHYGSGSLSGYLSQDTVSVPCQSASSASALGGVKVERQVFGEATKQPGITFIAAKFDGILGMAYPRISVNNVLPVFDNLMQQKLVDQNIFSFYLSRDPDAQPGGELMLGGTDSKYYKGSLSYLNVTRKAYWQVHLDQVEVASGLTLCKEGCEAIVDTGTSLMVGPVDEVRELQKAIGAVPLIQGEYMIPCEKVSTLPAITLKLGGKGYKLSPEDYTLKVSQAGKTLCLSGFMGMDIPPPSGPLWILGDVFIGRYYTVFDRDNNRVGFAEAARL
UniProt Q9Y5Z0, 63-518: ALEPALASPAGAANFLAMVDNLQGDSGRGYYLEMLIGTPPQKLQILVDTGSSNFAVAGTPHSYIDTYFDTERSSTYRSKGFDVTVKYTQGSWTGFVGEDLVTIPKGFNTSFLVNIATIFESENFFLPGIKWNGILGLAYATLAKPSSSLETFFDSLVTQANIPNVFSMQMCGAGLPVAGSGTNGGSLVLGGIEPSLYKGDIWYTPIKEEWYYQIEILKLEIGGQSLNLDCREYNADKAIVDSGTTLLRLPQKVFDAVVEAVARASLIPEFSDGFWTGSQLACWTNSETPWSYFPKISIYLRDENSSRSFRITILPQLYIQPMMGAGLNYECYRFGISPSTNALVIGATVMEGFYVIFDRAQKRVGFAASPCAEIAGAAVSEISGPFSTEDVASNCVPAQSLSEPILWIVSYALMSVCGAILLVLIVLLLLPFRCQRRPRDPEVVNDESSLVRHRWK

Each structure is given as a SMILES string.

The term IC50 denotes the concentration at which inhibition is half-maximal. Take `C[C@@]1(O)CCN(C(=O)[C@]23C[C@H]2[C@@](C)(c2cc(/C=C(\F)c4ccc(C#N)cn4)ccc2F)N=C(N)S3)C1` (single isomer, unassigned) [Example 310]: the IC50 on BACE1 [1] was found to be 0.0006 µM; on BACE1 [2], 0.0009 µM.

Regarding `C[C@]1(c2cc(/C=C(\F)c3ccc(C#N)cn3)ccc2F)N=C(N)S[C@@]2(C(=O)N3CCO[C@@H]4C[C@@H]43)C[C@H]21` (single isomer, unassigned) [Example 312], the IC50 on Cathepsin D (CatD) was 714 µM.

Take `CN(C)C(=O)[C@]12C[C@H]1[C@@](C)(c1cc(/C=C(\F)c3ccc(C#N)cn3)ccc1F)N=C(N)S2` [Example 106, (1S,5S,6S)-3-amino-5-(5-((Z)-2-(5-cyanopyridin-2-yl)-2-fluorovinyl)-2-fluorophenyl)-N,N,5-trimethyl-2-thia-4-azabicyclo[4.1.0]hept-3-ene-1-carboxamide]: the IC50 was found to be 0.00287 µM on BACE1 [1] and 0.00253 µM at BACE1 [2].

Turning to `C[C@]1(c2cc(/C=C(\F)c3ccc(Cl)cn3)ccc2F)N=C(N)S[C@@]2(C(=O)N3CCC3)C[C@H]21` [Example 112, ((1S,5S,6S)-3-amino-5-(5-((Z)-2-(5-chloropyridin-2-yl)-2-fluorovinyl)-2-fluorophenyl)-5-methyl-2-thia-4-azabicyclo[4.1.0]hept-3-en-1-yl)(azetidin-1-yl)methanone], the IC50 on BACE2 amounted to 0.00672 µM.

Take `CN(C)C(=O)[C@]12C[C@H]1[C@@](C)(c1cc(/C=C(\F)c3cnc(C#CC4CC4)cn3)ccc1F)N=C(N)S2` [Example 159, (1S,5S,6S)-3-amino-5-(5-((Z)-2-(5-(cyclopropylethynyl)pyrazin-2-yl)-2-fluorovinyl)-2-fluorophenyl)-N,N,5-trimethyl-2-thia-4-azabicyclo[4.1.0]hept-3-ene-1-carboxamide]: the IC50 at BACE2 came to 0.0196 µM.

With `Cc1cc(C#N)cnc1/C(F)=C/c1ccc(F)c([C@@]2(C)N=C(N)S[C@@]3(C(=O)N4CCOCC4)C[C@H]32)c1` [Example 160, 6-((Z)-2-(3-((1S,5S,6S)-3-amino-5-methyl-1-(morpholine-4-carbonyl)-2-thia-4-azabicyclo[4.1.0]hept-3-en-5-yl)-4-fluorophenyl)-1-fluorovinyl)-5-methylnicotinonitrile], the IC50 at Cathepsin D (CatD) came out at 311 µM.

Regarding `C[C@]1(c2cc(/C=C(\F)c3cnc(C#N)cn3)ccc2F)N=C(N)S[C@@]2(C(=O)N3CCOCC3)C[C@H]21` [Example 200, 5-((Z)-2-(3-((1S,5S,6S)-3-amino-5-methyl-1-(morpholine-4-carbonyl)-2-thia-4-azabicyclo[4.1.0]hept-3-en-5-yl)-4-fluorophenyl)-1-fluorovinyl)pyrazine-2-carbonitrile], at Cathepsin D (CatD), the IC50 was 89.8 µM.

`C[C@]1(O)CCN(C(=O)[C@]23C[C@H]2[C@@](C)(c2cc(/C=C(\F)c4ccc(C#N)cn4)ccc2F)N=C(N)S3)C1` [Example 309, 6-((Z)-2-(3-((1S,5S,6S)-3-amino-1-((S)-3-hydroxy-3-methylpyrrolidine-1-carbonyl)-5-methyl-2-thia-4-azabicyclo[4.1.0]hept-3-en-5-yl)-4-fluorophenyl)-1-fluorovinyl)nicotinonitrile]: the values for the IC50 on BACE1 [1] and at BACE1 [2] were 0.0003 µM and 0.0006 µM, respectively.

On to `C[C@]1(c2cc(/C=C(\F)c3ccc(C#N)cn3)ccc2F)N=C(N)S[C@@]2(C(=O)N3CCO[C@H]4C[C@H]43)C[C@H]21` [Example 311, 6-((Z)-2-(3-((1S,5S,6S)-3-amino-1-((1S,6R)-2-oxa-5-azabicyclo[4.1.0]heptane-5-carbonyl)-5-methyl-2-thia-4-azabicyclo[4.1.0]hept-3-en-5-yl)-4-fluorophenyl)-1-fluorovinyl)nicotinonitrile], for which the IC50 on Cathepsin D (CatD) was determined as 681 µM.

The values are drawn from patent publication US10246429B2, “Vinyl fluoride cyclopropyl fused thiazin-2-amine compounds as beta-secretase inhibitors and methods of use” (AMGEN INC., priority 2015, dated 2019).
